# In patent US20220024904A1, “REAGENT FOR BIOCONJUGATION VIA IRREVERSIBLE REBRIDGING OF DISULFIDE LINKAGES” (Research Foundation of the City University of New York, priority 2020, published 2022):
# Tested on: HER2-positive BT474 cells
# Test: Flow cytometry cell binding, HER2-positive cells
# Type: cell-based, human
# Conditions: for cell populations detected after incubation: BT474 cells, identical conditions; for binding to cells: flow cytometry, HER2-positive BT474 cells
# Description: To this end, flow cytometry experiments were performed using two human breast cancer cell lines: HER2-positive BT474 cells and HER2-negative MDA-MB-235 cells. […] Just as important, however, are the differences between the behavior of the two FITC-modified Fabs and HER2-positive BT474 cells.
Substance,cell populations detected after incubation,immunoreactivity (compared with FabHER2-Lys-FITC),binding to cells
FabHER2-DiPODS-FITC,only a single population of fluorophore-positive cells,higher,binding was observed
FabHER2-Lys-FITC [reference compound],both fluorophore-positive and fluorophore-negative cells,,binding was observed
